Test results taken from patent US6953793B2 (priority 2000, dated 2005).

By UniProt entry, the sequences of proteins in these tests, tags left out. Residues count along the entry.
UniProt P25774, 115-331: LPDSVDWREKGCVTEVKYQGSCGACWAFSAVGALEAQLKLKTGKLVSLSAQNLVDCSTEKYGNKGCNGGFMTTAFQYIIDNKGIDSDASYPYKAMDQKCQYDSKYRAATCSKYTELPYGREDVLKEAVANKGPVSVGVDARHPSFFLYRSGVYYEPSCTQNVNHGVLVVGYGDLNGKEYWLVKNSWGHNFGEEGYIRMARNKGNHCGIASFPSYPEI

Molecular target: T1, Recombinant human cathepsin S (CatS) (Homo sapiens, UniProt P25774)
T1 construct: made in house; host or cells: baculovirus system (insect cells)
Test: biochemical

**Q.** For `CS(=O)(=O)N1CCc2c(c(-c3ccc(C(F)(F)F)cc3)nn2CC(O)CN2CCC(n3c(=O)n(CC#N)c4cccnc43)CC2)C1` (stereo not drawn) [Example 375, [3-(1-{2-Hydroxy-3-[5-methanesulfonyl-3-(4-trifluoromethyl-phenyl)-4,5,6,7-tetrahydro-pyrazolo[4,3-c]pyridin-1-yl]-propyl}-piperidin-4-yl)-2-oxo-2,3-dihydro-imidazo[4,5-b]pyridin-1-yl]-acetonitrile], which IC50 is on record?
**A.** Its IC50 is 50 nM.

**Q.** For `COc1ccc(OC2CCN(CC(O)Cn3nc(-c4ccc(Br)cc4)c4c3CCN(C(C)=O)C4)CC2)cc1` (stereo not drawn) [Example 236, 1-(3-(4-Bromo-phenyl)-1-{2-hydroxy-3-[4-(4-methoxy-phenoxy)-piperidin-1-yl]-propyl}-1,4,6,7-tetrahydro-pyrazolo[4,3-c]pyridin-5-yl)-ethanone], which IC50 is on record?
**A.** The IC50 was 710 nM.

**Q.** For `CC(=O)N1CCc2c(c(-c3ccc([N+](=O)[O-])cc3)nn2CC(O)CN2CCC(n3c(=O)n(C)c4ccccc43)CC2)C1` (stereo not drawn) [Example 342, 1-(1-{3-[5-Acetyl-3-(4-nitro-phenyl)-4,5,6,7-tetrahydro-pyrazolo[4,3-c]pyridin-1-yl]-2-hydroxy-propyl}-piperidin-4-yl)-3-methyl-1,3-dihydro-benzoimidazol-2-one], which IC50 is on record?
**A.** The IC50 was 380 nM.

**Q.** How did the IC50 turn out when `CC(=O)N1CCc2c(c(-c3ccc(Cl)c(C(F)(F)F)c3)nn2CC(O)CN2CCC(n3c(=O)[nH]c4ccccc43)CC2)C1` (stereo not drawn) [Example 280, 1-(1-{3-[5-Acetyl-3-(4-chloro-3-trifluoromethyl-phenyl)-4,5,6,7-tetrahydro-pyrazolo[4,3-c]pyridin-1-yl]-2-hydroxy-propyl}-piperidin-4-yl)-1,3-dihydro-benzoimidazol-2-one] was run?
**A.** Its IC50 is 230 nM.

**Q.** How did the IC50 turn out when `CC(=O)N1CCc2c(c(-c3ccc(C(F)(F)F)cc3)nn2CC(O)CN2CCC(n3c(=O)[nH]c4cccnc43)CC2)C1` (stereo not drawn) [Example 314, 3-(1-{3-[5-Acetyl-3-(4-trifluoromethyl-phenyl)-4,5,6,7-tetrahydro-pyrazolo[4,3-c]pyridin-1-yl]-2-hydroxy-propyl}-piperidin-4-yl)-1,3-dihydro-imidazo[4,5-b]pyridin-2-one] was run?
**A.** Its IC50 is 140 nM.

**Q.** How did the IC50 turn out when `CS(=O)(=O)N1CCc2c(c(-c3ccc(C(F)(F)F)cc3)nn2CCCN2CCC(n3ccc4ccc(Cl)cc43)CC2)C1` [Example 193, 1-{3-[4-(6-Chloro-indol-1-yl)-piperidin-1-yl]-propyl}-5-methanesulfonyl-3-(4-trifluoromethyl-phenyl)-4,5,6,7-tetrahydro-1H-pyrazolo[4,3-c]pyridine] was run?
**A.** The IC50 was 440 nM.

**Q.** `CCN(CC)CCn1c(=O)n(C2CCN(CC(O)Cn3nc(-c4ccc(Cl)c(C)c4)c4c3CCN(C(C)=O)C4)CC2)c2ccccc21` (stereo not drawn) [Example 320, 1-(1-{3-[5-Acetyl-3-(4-chloro-3-methyl-phenyl)-4,5,6,7-tetrahydro-pyrazolo[4,3-c]pyridin-1-yl]-2-hydroxy-propyl}-piperidin-4-yl)-3-(2-diethylamino-ethyl)-1,3-dihydro-benzoimidazol-2-one] was tested. Which IC50 did it give?
**A.** Its IC50 is 390 nM.

**Q.** With `CC(=O)N1CCc2c(c(-c3ccc(C(F)(F)F)cc3)nn2CC(O)CN2CCC(Nc3c(Cl)cncc3Cl)CC2)C1` (stereo not drawn) [Example 110, 1-[1-{3-[4-(3,5-Dichloro-pyridin-4-ylamino)-piperidin-1-yl]-2-hydroxy-propyl}-3-(4-trifluoromethyl-phenyl)-1,4,6,7-tetrahydro-pyrazolo[4,3-c]pyridin-5-yl]-ethanone] as the compound, how does the IC50 read?
**A.** The IC50 was 330 nM.

**Q.** How did the IC50 turn out when `CC(=O)N1CCc2c(c(-c3ccc(OC(F)(F)F)cc3)nn2CC(O)CN2CCC(n3c(=O)[nH]c4ccccc43)CC2)C1` (stereo not drawn) [Example 252, 1-(1-{3-[5-Acetyl-3-(4-trifluoromethoxy-phenyl)-4,5,6,7-tetrahydro-pyrazolo[4,3-c]pyridin-1-yl]-2-hydroxy-propyl}-piperidin-4-yl)-1,3-dihydro-benzoimidazol-2-one] was run?
**A.** The IC50 was 130 nM.

**Q.** Which IC50 does the source give for `CC(=O)N1CCc2c(c(-c3ccc(C(F)(F)F)cc3)nn2CC(O)CN2CCC(c3nc4ccccc4o3)CC2)C1` (stereo not drawn) [Example 398, 1-[1-[3-(4-Benzooxazol-2-yl-piperidin-1-yl)-2-hydroxy-propyl]-3-(4-trifluoromethyl-phenyl)-1,4,6,7-tetrahydro-pyrazolo[4,3-c]pyridin-5-yl]-ethanone] here?
**A.** The IC50 was 190 nM.

**Q.** How did the IC50 turn out when `CC(=O)N1CCc2c(c(-c3ccc(Cl)c(C)c3)nn2CC(O)CN2CCC(N3CCc4cc(Br)ccc43)CC2)C1` (stereo not drawn) [Example 207, 1-[1-{3-[4-(5-Bromo-2,3-dihydro-indol-1-yl)-piperidin-1-yl]-2-hydroxy-propyl}-3-(4-chloro-3-methyl-phenyl)-1,4,6,7-tetrahydro-pyrazolo[4,3-c]pyridin-5-yl]-ethanone] was run?
**A.** The IC50 was 1300 nM.

**Q.** How did the IC50 turn out when `NC(=O)N1CCc2c(c(-c3ccc(Br)cc3)nn2CC(O)CN2CCC(n3c(=O)[nH]c4cccnc43)CC2)C1` (stereo not drawn) [Example 374, 3-(4-Bromo-phenyl)-1-{2-hydroxy-3-[4-(2-oxo-1,2-dihydro-imidazo[4,5-b]pyridin-3-yl)-piperidin-1-yl]-propyl}-1,4,6,7-tetrahydro-pyrazolo[4,3-c]pyridine-5-carboxylic acid amide] was run?
**A.** Its IC50 is 80 nM.

**Q.** With `CC(=O)N1CCc2c(c(-c3ccc(Cl)c(C)c3)nn2CC(O)CN2CCC(n3c(=O)n(Cc4ccccc4)c4ccccc43)CC2)C1` (stereo not drawn) [Example 264, 1-(1-{3-[5-Acetyl-3-(4-chloro-3-methyl-phenyl)-4,5,6,7-tetrahydro-pyrazolo[4,3-c]pyridin-1-yl]-2-hydroxy-propyl}-piperidin-4-yl)-3-benzyl-1,3-dihydro-benzoimidazol-2-one] as the compound, how does the IC50 read?
**A.** Its IC50 is 340 nM.

**Q.** How did the IC50 turn out when `CC(=O)N1CCc2c(c(-c3ccc(Cl)c(C)c3)nn2C[C@@H](O)CN2CCC(n3c(=O)[nH]c4ccc(Cl)cc43)CC2)C1` [Example 293, (S)-1-(1-{3-[5-Acetyl-3-(4-chloro-3-methyl-phenyl)-4,5,6,7-tetrahydro-pyrazolo[4,3-c]pyridin-1-yl]-2-hydroxy-propyl}-piperidin-4-yl)-6-chloro-1,3-dihydro-benzoimidazol-2-one] was run?
**A.** The IC50 was 160 nM.

**Q.** For `CC(=O)N1CCc2c(c(-c3ccc(C(F)(F)F)cc3)nn2CC(O)CN2CCC(c3nc4ccc(C)cc4o3)CC2)C1` (stereo not drawn) [Example 399, 1-[1-{2-Hydroxy-3-[4-(6-methyl-benzooxazol-2-yl)-piperidin-1-yl]-propyl}-3-(4-trifluoromethyl-phenyl)-1,4,6,7-tetrahydro-pyrazolo[4,3-c]pyridin-5-yl]-ethanone], which IC50 is on record?
**A.** Its IC50 is 510 nM.

**Q.** With `CC(=O)N1CCc2c(c(-c3ccc(Cl)c(C)c3)nn2CC(O)CN2CCC(n3c(=O)oc4ccccc43)CC2)C1` (stereo not drawn) [Example 395, 3-(1-{3-[5-Acetyl-3-(4-chloro-3-methyl-phenyl)-4,5,6,7-tetrahydro-pyrazolo[4,3-c]pyridin-1-yl]-2-hydroxy-propyl}-piperidin-4-yl)-3H-benzooxazol-2-one] as the compound, how does the IC50 read?
**A.** Its IC50 is 390 nM.

**Q.** Which IC50 does the source give for `CC(=O)N1CCc2c(c(-c3ccc(Cl)c(C)c3)nn2CC(O)CN2CCC(n3c(=O)n(CC(N)=O)c4ccccc43)CC2)C1` (stereo not drawn) [Example 316, 2-[3-(1-{3-[5-Acetyl-3-(4-chloro-3-methyl-phenyl)-4,5,6,7-tetrahydro-pyrazolo[4,3-c]pyridin-1-yl]-2-hydroxy-propyl}-piperidin-4-yl)-2-oxo-2,3-dihydro-benzoimidazol-1-yl]-acetamide] here?
**A.** Its IC50 is 280 nM.

**Q.** Which IC50 does the source give for `CS(=O)(=O)N1CCc2c(c(-c3ccc(Br)cc3)nn2CC(O)CN2CCC(Oc3ccccc3C#N)CC2)C1` (stereo not drawn) [Example 246, 2-(1-{3-[3-(4-Bromo-phenyl)-5-methanesulfonyl-4,5,6,7-tetrahydro-pyrazolo[4,3-c]pyridin-1-yl]-2-hydroxy-propyl}-piperidin-4-yloxy)-benzonitrile] here?
**A.** The IC50 was 300 nM.
